Results on three molecules are retold here after ChEMBL document CHEMBL3259653, “Potent and selective inhibitors of human reticulocyte 12/15-lipoxygenase as anti-stroke therapies” (J Med Chem, 2014).

Molecules are shown by their SMILES. Where only a bound is given, the exact number is not on record here.

In this assay the target is T1, Polyunsaturated fatty acid lipoxygenase ALOX15 (Homo sapiens, UniProt P16050).
T1 sequence (P16050 whole entry): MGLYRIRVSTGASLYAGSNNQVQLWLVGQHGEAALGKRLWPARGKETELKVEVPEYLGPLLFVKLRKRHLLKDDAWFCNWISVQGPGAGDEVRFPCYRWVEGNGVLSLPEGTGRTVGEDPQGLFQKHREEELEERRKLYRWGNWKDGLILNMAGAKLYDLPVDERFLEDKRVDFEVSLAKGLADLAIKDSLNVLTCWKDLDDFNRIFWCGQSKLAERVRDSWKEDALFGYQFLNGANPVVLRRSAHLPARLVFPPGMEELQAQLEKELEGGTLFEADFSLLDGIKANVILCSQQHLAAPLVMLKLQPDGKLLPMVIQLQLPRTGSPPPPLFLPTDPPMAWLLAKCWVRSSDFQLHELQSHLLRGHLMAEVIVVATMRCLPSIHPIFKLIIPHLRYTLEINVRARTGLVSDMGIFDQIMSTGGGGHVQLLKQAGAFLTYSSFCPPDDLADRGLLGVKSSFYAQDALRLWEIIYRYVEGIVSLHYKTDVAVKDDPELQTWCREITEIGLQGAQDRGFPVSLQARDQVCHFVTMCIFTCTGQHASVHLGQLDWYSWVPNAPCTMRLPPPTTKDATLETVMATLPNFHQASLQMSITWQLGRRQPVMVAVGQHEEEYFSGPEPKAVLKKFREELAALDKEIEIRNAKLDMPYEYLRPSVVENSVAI
The experiment in a line: Inhibition of recombinant N-terminal His6-tagged human reticulocyte 12/15-lipoxygenase using arachidonic acid as substrate by UV-vis spectrometric analysis.
With `CNc1sc(-c2cccc3ccccc23)nc1C(=O)OC`, the IC50 (commonly the concentration that inhibits the measured activity by half) is over 30 µM.

Take `CNc1nccc(-c2cccc3ccccc23)n1`: the IC50 was over 40 µM.

On to `CNc1ncc(-c2cccc3ccccc23)o1`, for which the IC50 was over 40 µM.
